The record followed here is US9359372B2, “Hexahydrodibenzo[a,g]quinolizine compound, preparation method thereof, pharmaceutical composition and use thereof” (SHANGHAI INSTITUTE OF MATERIA MEDICA, CHINESE ACADEMY OF …, priority 2011, dated 2016).

Protein sequences, listed by entry. Tags and fused reporters are not part of them.
UniProt O77680, whole entry: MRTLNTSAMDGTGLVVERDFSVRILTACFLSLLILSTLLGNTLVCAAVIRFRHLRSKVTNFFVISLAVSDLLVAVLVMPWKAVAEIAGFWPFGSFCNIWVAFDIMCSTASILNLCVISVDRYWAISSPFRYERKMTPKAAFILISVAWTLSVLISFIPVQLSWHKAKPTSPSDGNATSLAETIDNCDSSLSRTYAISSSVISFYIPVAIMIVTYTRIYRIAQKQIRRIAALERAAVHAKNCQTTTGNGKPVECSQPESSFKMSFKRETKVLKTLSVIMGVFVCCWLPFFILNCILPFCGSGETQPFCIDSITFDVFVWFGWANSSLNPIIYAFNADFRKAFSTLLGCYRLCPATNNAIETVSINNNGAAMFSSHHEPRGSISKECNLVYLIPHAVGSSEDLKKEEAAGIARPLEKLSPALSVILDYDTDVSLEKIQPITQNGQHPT
UniProt P21728, whole entry: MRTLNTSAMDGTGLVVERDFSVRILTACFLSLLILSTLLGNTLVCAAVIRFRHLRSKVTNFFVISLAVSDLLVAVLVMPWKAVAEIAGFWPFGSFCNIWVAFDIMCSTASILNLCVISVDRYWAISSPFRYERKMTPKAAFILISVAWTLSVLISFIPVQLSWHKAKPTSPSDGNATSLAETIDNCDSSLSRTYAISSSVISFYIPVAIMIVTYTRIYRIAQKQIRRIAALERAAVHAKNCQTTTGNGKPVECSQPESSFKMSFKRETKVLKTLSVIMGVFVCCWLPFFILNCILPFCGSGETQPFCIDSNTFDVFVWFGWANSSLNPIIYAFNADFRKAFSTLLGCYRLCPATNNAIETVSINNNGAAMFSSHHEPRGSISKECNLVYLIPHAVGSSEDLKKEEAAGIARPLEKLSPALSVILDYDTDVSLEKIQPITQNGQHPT

The target of assay [1] is dopamine D1 receptor (Macaca mulatta (Rhesus macaque), UniProt O77680). Kind of assay: Affinity on dopamine D1 receptor, competition with [3H] SCH23390. Type of assay: binding. The method, then: (1). Determination of the Affinity of Hexahydrodibenzo[a,g]Quinolizine Compound of General Formula I and Derivatives Thereof on Dopamine D1, Dopamine D2, 5-HT1A, and 5-HT2A Receptor.
1) The Experimental Method
Different concentrations (10^−5 M-10^−11 M) of the compound of the invention and corresponding isotope receptor ligand as well as receptor protein were loaded into the reaction tube and incubated in 30° C. water bath for 60 minutes. The reaction was terminated in a refrigerator. The reaction mixture was put in a Millipore filter (millipore) cell sample collector, filtered through suction filtration using GF/C glass fiber filter paper, and dried. The resulting sample was placed into 0.5 mL tube. 500 μL liquid scintillation fluid was added and intensity of radioactivity was determined by counting.
(1) Construction of receptor and materials for cell culture: Escherichia coli. DH5α strain; insect virus transfer vector pVL1393 plasmid; BaculoGold linear Chinese baculovirus DNA, purchased from ParMingen company; mkD1RcDNA; rD2R cDNA; various restriction endonucleases, TaqDNA polymerase, T4 ligase, etc., LB medium; insect cell culture TNM-FH.
(2) the Experimental Materials for Receptor Binding
Firstly, the above […] are dissolved in DMSO and then diluted with double distilled water to the appropriate concentration (10^−5 M-10^−11 M). […]

Assay [2] has as its target D1 receptor (Homo sapiens (Human), UniProt P21728). Kind of assay: [35S]GTPγS binding assay for D1 receptor. The class given is biochemical.

Usually IC50 stands for the concentration that inhibits the measured activity by half. The Ki is a dissociation constant, usually derived from enzyme kinetics or from competition with a known ligand. Higher therefore signals lower affinity. For the molecule `COc1cc2c(c(OC)c1OC)CN1CCc3cc(O)c(O)cc3C1C2` (racemic) [DC037027, (±)-2,3-bihydroxy-9,10,11-trimethoxy-5,8,13,13a-tetrahydro-6H-dibenzo[a,g]quinolizine], in assay [1], the IC50 was 1060 nM and the inhibition constant Ki is 522 nM.

In the case of `CN1CCc2cc(Cl)c(O)cc2[C@@H](c2ccccc2)C1` [SCH-23390, reference compound], the “D1 antagonist Imax %” value in assay [2] was 81.0 ± 2.7%.
